Experimental data from patent US20120114564A1, “MRI T1 CONTRASTING AGENT COMPRISING MANGANESE OXIDE NANOPARTICLE” (SEOUL NATIONAL UNIVERSITY INDUSTRY FOUNDATION, priority 2007, published 2012).

Tested on: MDA-MB-435 human breast cancer cells
Test: Cancer specific MRI in breast cancer brain metastatic tumor model
Assay type: in vivo, mouse
Conditions: 25 nm, 35 mg of Mn per kg body weight, bolus tail vein, 4.7T

Herceptin conjugated MnO nanoparticles: Maleimido-PEG-phospholipid coated MnO nanoparticles conjugated with the breast cancer specific antibody Herceptin
Cancer cell targeting MR images compared with non-functionalized MnO nanoparticles: more excellent cancer cell targeting MR images
